{
  "sequences": {"note": "Chains of the proteins cited; added tags and fusions are not shown. Lines headed by an entry give the natural chain unless they say otherwise; changes in a name come on top.", "UniProt P27815": "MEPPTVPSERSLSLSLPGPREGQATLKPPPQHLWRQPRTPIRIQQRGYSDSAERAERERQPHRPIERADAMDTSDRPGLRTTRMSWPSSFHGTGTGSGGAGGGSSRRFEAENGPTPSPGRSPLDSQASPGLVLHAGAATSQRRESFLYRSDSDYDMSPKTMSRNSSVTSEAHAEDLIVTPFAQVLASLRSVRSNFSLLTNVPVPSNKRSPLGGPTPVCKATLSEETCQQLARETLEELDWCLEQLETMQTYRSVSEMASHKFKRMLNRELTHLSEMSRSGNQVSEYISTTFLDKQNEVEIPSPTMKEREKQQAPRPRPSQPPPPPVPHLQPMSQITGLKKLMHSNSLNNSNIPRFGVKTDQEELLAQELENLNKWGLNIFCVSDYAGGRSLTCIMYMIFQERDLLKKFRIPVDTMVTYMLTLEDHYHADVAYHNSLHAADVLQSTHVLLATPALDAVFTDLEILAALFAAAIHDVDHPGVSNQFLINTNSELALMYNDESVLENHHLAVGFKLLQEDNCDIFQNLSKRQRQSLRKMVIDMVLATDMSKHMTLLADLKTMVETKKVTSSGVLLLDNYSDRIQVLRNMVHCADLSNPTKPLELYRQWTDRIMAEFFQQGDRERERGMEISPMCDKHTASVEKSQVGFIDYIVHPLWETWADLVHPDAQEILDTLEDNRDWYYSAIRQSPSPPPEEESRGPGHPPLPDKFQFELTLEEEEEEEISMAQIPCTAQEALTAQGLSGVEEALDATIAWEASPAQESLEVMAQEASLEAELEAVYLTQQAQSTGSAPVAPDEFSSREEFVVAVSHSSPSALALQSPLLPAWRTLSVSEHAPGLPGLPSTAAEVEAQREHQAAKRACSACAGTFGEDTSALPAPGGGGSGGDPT", "UniProt Q08499": "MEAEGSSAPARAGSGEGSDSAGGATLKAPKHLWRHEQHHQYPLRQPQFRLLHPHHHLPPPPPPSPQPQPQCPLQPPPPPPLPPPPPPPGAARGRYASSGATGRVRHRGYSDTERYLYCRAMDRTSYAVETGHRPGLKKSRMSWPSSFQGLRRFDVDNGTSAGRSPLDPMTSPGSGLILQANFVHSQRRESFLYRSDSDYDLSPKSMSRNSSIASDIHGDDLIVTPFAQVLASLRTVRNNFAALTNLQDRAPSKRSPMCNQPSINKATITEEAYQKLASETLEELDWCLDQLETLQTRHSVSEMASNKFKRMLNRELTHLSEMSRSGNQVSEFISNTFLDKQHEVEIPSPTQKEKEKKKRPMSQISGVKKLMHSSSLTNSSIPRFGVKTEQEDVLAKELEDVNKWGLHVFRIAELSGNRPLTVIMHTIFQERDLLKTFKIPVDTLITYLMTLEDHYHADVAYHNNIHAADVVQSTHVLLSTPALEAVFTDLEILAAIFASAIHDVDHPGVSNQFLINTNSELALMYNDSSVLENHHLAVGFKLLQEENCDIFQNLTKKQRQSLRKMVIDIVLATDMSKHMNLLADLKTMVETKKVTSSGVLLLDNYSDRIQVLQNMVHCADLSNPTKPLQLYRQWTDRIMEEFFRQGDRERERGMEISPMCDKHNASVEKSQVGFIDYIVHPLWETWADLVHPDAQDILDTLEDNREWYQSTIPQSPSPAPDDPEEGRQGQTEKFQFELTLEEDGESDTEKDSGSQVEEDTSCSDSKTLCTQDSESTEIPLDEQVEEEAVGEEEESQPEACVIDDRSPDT", "UniProt Q07343": "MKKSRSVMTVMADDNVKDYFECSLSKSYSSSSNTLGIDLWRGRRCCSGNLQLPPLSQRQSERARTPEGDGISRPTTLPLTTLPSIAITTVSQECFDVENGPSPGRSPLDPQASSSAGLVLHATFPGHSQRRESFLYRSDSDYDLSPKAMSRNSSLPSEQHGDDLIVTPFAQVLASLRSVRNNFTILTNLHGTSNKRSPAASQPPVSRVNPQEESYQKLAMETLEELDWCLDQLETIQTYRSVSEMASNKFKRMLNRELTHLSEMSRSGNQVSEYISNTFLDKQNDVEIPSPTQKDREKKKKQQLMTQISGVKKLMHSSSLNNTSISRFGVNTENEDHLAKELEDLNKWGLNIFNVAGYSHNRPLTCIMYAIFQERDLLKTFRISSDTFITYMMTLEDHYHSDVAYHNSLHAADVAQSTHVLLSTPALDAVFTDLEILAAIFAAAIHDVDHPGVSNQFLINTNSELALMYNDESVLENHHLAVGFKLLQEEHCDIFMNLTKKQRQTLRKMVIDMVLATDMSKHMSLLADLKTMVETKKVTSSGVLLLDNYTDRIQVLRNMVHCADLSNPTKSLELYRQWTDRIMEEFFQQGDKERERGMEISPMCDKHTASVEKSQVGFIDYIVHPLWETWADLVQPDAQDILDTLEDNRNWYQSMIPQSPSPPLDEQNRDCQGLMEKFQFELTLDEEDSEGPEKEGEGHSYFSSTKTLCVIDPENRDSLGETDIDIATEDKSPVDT", "UniProt Q08493": "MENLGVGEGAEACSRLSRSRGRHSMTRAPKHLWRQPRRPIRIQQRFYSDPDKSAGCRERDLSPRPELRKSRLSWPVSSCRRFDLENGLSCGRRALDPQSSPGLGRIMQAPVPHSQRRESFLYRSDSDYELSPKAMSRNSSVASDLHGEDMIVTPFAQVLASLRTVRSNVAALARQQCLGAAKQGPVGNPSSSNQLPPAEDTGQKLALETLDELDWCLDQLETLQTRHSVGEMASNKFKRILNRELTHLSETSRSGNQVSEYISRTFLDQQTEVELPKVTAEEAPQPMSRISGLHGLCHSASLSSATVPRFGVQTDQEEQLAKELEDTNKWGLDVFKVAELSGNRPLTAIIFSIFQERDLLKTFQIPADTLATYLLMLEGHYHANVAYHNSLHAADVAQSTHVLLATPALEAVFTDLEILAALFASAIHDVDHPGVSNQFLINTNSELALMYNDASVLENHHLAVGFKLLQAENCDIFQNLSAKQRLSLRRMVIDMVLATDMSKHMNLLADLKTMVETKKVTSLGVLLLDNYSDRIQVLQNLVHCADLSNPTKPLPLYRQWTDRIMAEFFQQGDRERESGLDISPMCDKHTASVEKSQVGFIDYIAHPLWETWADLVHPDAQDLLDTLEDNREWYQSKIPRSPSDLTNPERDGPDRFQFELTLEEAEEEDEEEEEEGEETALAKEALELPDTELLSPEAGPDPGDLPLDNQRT"},
  "source": "ChEMBL document CHEMBL4396872",
  "about": "“Pharmacokinetics-Driven Optimization of 4(3 H)-Pyrimidinones as Phosphodiesterase Type 5 Inhibitors Leading to TPN171, a Clinical Candidate for the Treatment of Pulmonary Arterial Hypertension” (J Med Chem, 2019)",
  "target": "Phosphodiesterase 4 (Homo sapiens, UniProt P27815+Q08499+Q07343+Q08493)",
  "assay": "Inhibition of N-terminal GST-tagged human PDE4 expressed in baculovirus infected sf9 cells using [3H]cAMP as substrate measured after 30 mins by scintillation proximity assay",
  "type": "ADME",
  "data": [
    {"smiles": "CN1CC(=O)N2[C@H](c3ccc4c(c3)OCO4)c3[nH]c4ccccc4c3C[C@@H]2C1=O", "values": [
      {"measurement": "IC50", "result": "> 10", "unit": "µM"}
    ]}
  ]
}
